“And” between values parts separate entries of the source, which are not always exact repeats. Equal values may be shown once.
Legend:
[1] = target: GIPR (Homo sapiens, UniProt P48546); test: In vitro receptor binding, [125I]GIP displacement on membranes; conditions: ratio of the Ki value of the endogenous ligand (GIP) to the Ki value of the test compound; [125I]GIP 0.0315 nM
Method: hGIP and the polypeptide compound of the present invention were dissolved in DMSO and stored at -80°C. 98 µL of membrane dissolved in binding buffer (50 mM HEPES pH 7.4, 5 mM MgCl2, 1 mM CaCl2, 0.1% BSA, 0.005% Tween-20) was transferred to a 96-well test plate (15 µg/well). The compound was diluted in DMSO, and then, 2 µL of the diluted compounds or 100% DMSO was added to the test plate containing the membrane solution. 100 µL of [125I]GIP was further added (the final concentration in the reaction was 0.0315 nM). The test plate was left at room temperature for 90 minutes. The membrane complexes were harvested into a GF/B plate precoated with 0.5% PEI by using a Cell Harvester, and washed for 3 times with 500 µL of pre-cooled elution buffer (50 mM Tris-HCl pH 7.4, 125 mM NaCl) at 4°C. After drying at 37°C for 2 hours, 50 µL of scintillation fluid was added to each well. The plate was read with a MicroBeta2 scintillation counter after sealing and settling for at least 1 hour so as to determine the membrane bound radioligand level.
The absolute IC50 concentration of the compound was derived by non-linear regression of the binding percent of [125I]GIP versus the concentration of the compound added. The IC50 concentration was converted to Ki (Ki was the inhibition constant) using the Cheng-Prusoff equation. Table 6. Receptor Binding Affinity of the Polypeptide

The chains behind the UniProt entries cited, without tags or fusion partners. Residues count along the entry.
UniProt P48546, 22-466 limits assumed: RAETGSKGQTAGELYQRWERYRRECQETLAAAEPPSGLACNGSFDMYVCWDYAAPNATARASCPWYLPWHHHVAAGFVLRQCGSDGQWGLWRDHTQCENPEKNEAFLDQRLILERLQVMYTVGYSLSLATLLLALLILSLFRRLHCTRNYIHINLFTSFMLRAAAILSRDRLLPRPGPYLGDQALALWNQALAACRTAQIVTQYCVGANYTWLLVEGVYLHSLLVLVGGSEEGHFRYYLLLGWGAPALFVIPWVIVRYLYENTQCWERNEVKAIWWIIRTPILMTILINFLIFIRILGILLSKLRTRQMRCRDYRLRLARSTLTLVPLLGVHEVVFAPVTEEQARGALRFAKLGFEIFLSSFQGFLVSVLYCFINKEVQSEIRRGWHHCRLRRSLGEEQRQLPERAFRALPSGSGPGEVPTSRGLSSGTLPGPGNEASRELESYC
UniProt P43220, 24-463 limits assumed: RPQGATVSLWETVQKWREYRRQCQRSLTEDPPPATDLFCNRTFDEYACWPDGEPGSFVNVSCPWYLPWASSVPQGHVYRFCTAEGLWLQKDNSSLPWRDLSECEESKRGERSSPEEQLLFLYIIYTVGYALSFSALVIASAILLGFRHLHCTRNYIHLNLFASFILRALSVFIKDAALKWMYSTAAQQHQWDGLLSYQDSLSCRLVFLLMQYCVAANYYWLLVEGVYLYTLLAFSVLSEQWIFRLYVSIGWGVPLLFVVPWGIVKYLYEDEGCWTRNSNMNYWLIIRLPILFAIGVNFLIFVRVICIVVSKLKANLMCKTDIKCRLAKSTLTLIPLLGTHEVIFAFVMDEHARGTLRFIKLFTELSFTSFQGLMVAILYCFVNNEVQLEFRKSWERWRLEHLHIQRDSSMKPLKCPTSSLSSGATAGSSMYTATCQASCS

[2] = target: GLP-1R (Homo sapiens, UniProt P43220); test: In vitro receptor binding, [125I]GLP-1 displacement on membranes; conditions: ratio of the Ki value of the endogenous ligand (GLP-1) to the Ki value of the test compound; [125I]GLP-1 0.15 nM
Method: hGLP-1 and the compound of the present invention were dissolved in DMSO and stored at -80°C. 89 µL of membrane dissolved in binding buffer (50 mM Hepes, pH 7.4, 5 mM MgCl2 , 5 mM EDTA, 0.005% TWEEN, 0.005% HSA) was transferred to a 96-well test plate (5 µg/well). The compound was diluted in DMSO, and then, 1 µL of the diluted compound or 100% DMSO was added to the test plate containing the membrane solution. 10 µL of [125I] GLP-1 was further added (the final concentration in the reaction was 0.15 nM). The test plate was left at room temperature for 90 minutes. The membrane complexes were harvested into a GF/B plate precoated with 0.5% PEI by using a Cell Harvester, and washed for 3 times with 500 µL of pre-cooled elution buffer (50 mM Hepes, pH 7.4, 500 mM NaCl) at 4°C. After drying at 37°C for 2 hours, 50 µL of scintillation fluid was added to each well. The plate was read with a MicroBeta2 scintillation counter after sealing and settling for at least 1 hour so as to determine the membrane bound radioligand level.
The absolute IC50 concentration of the compound was derived by non-linear regression of the binding percent of [125I]GLP-1 versus the concentration of the compound added. The IC50 concentration was converted to Ki (Ki was the inhibition constant) using the Cheng-Prusoff equation.

[3] = system: db/db mice; test: Pharmacodynamic effects on blood glucose in diabetic model mice; conditions: male db/db mice, single subcutaneous administration, 10 nmol/kg, 0 to 120 hours, significant difference versus vehicle group; two study groups (Group 1, Group 2)
Method: In this study, db/db mice were subcutaneously single administered, and the changes in the blood glucose, the food intake, and the body weight of the mice were measured to illustrate the hypoglycemic effects of the compounds according to the present invention as well as the duration of the drug effect. In this study, 8-9 week old male db/db mice were used. The db/db mice were placed in an individual ventilated cage (IVC) facility with a controlled temperature (20-26°C) and humidity (40-70%) and a controlled 12h:12h light-dark cycle. The mice can receive food and water ad libitum. Blood was sampled at the tail tip, and the base blood glucose was measured by a Roche blood glucose meter. The mice were randomly divided into groups according to the initial blood glucose and initial body weight (n=6/group), and each group had similar body weight and blood glucose.
The compounds of the invention (10 nmol/kg) were dissolved in a solvent (PBS containing 0.1% Tween 20, pH 7.2-7.4). At the set time point (0 to 120 hours), the recorded hypoglycemic duration of the polypeptide compounds has a significant difference vesus the vehicle group. Table 8. Hypoglycemic Duration of the Polypeptide

| Substance | GIPR Ki ratio [1] | GLP-1R Ki ratio [2] | Hypoglycemic Duration [3] |
| --- | --- | --- | --- |
| H-Tyr^1-Aib^2-Glu^3-Gly^4-Thr^5-αMePhe^6-Thr^7-Ser^8-Asp^9-Tyr^10-Aib^11-Ile^12-Aib^13-Leu^14-Asp^15-Lys^16-Gln^17-Ala^18-Gln^19-Ala^20-Glu^21-Phe^22-Val^23-Lys^24(AEEA-AEEA-AEEA-γGlu-CO-(CH2)20-COOH)-Trp^25-Leu^26-Leu^27-Lys^28-Gly^29-Gly^30-Pro^31-Ser^32-Ser^33-Gly^34-Ala^35-Pro^36-Pro^37-Pro^38-Ser^39-Lys^40-NH2 | 0.11 | 0.63 | 104 h |
| H-Tyr^1-Aib^2-Glu^3-Gly^4-Thr^5-αMePhe^6-Thr^7-Ser^8-Asp^9-Tyr^10-Aib^11-Ile^12-Aib^13-Leu^14-Asp^15-Lys^16-Gln^17-Ala^18-Gln^19-Ala^20-Glu^21-Phe^22-Val^23-Lys^24(AEEA-AEEA-γGlu-CO-(CH2)16-COOH)-Trp^25-Leu^26-Leu^27-Lys^28-Gly^29-Gly^30-Pro^31-Ser^32-Ser^33-Gly^34-Ala^35-Pro^36-Pro^37-Pro^38-Ser^39-Lys^40-NH2 |  | 0.47 | 56 h |
| H-Tyr^1-Aib^2-Glu^3-Gly^4-Thr^5-αMePhe^6-Thr^7-Ser^8-Asp^9-Tyr^10-Aib^11-Ile^12-Aib^13-Leu^14-Asp^15-Lys^16-Gln^17-Ala^18-Gln^19-Ala^20-Glu^21-Phe^22-Val^23-Lys^24(AEEA-AEEA-γGlu-CO-(CH2)18-COOH)-Trp^25-Leu^26-Leu^27-Lys^28-Gly^29-Gly^30-Pro^31-Ser^32-Ser^33-Gly^34-Ala^35-Pro^36-Pro^37-Pro^38-Ser^39-Lys^40-NH2 | 0.14 | 0.28 | 72 h |
| H-Tyr^1-Aib^2-Glu^3-Gly^4-Thr^5-αMePhe^6-Thr^7-Ser^8-Asp^9-Tyr^10-Aib^11-Ile^12-Aib^13-Leu^14-Asp^15-Lys^16-Gln^17-Ala^18-Gln^19-Ala^20-Glu^21-Phe^22-Val^23-Lys^24(AEEA-AEEA-γGlu-CO-(CH2)20-COOH)-Trp^25-Leu^26-Leu^27-Lys^28-Gly^29-Gly^30-Pro^31-Ser^32-Ser^33-Gly^34-Ala^35-Pro^36-Pro^37-Pro^38-Ser^39-Lys^40-NH2 | 0.08 | 0.37 | 104 h |
| H-Tyr^1-Aib^2-Glu^3-Gly^4-Thr^5-αMePhe^6-Thr^7-Ser^8-Asp^9-Tyr^10-Aib^11-Ile^12-Aib^13-Leu^14-Asp^15-Lys^16-Gln^17-Ala^18-Gln^19-Ala^20-Glu^21-Phe^22-Val^23-Lys^24(AEEA-AEEA-γGlu-γGlu-γGlu-CO-(CH2)16-COOH)-Trp^25-Leu^26-Leu^27-Lys^28-Gly^29-Gly^30-Pro^31-Ser^32-Ser^33-Gly^34-Ala^35-Pro^36-Pro^37-Pro^38-Ser^39-Lys^40-NH2 |  | 0.17 | 32 h |
| H-Tyr^1-Aib^2-Glu^3-Gly^4-Thr^5-αMePhe^6-Thr^7-Ser^8-Asp^9-Tyr^10-Aib^11-Ile^12-Aib^13-Leu^14-Asp^15-Lys^16-Gln^17-Ala^18-Gln^19-Ala^20-Glu^21-Phe^22-Val^23-Lys^24-Trp^25-Leu^26-Leu^27-Lys^28(AEEA-AEEA-AEEA-γGlu-CO-(CH2)16-COOH)-Gly^29-Gly^30-Pro^31-Ser^32-Ser^33-Gly^34-Ala^35-Pro^36-Pro^37-Pro^38-Ser^39-Lys^40-NH2 | 0.09 | 0.93 | 56 h |
| H-Tyr^1-Aib^2-Glu^3-Gly^4-Thr^5-αMePhe^6-Thr^7-Ser^8-Asp^9-Tyr^10-Aib^11-Ile^12-Aib^13-Leu^14-Asp^15-Lys^16-Gln^17-Ala^18-Gln^19-Ala^20-Glu^21-Phe^22-Val^23-Lys^24-Trp^25-Leu^26-Leu^27-Lys^28(AEEA-AEEA-AEEA-γGlu-CO-(CH2)20-COOH)-Gly^29-Gly^30-Pro^31-Ser^32-Ser^33-Gly^34-Ala^35-Pro^36-Pro^37-Pro^38-Ser^39-Lys^40-NH2 | 0.05 | 1.36 | 104 h |
| H-Tyr^1-Aib^2-Glu^3-Gly^4-Thr^5-αMePhe^6-Thr^7-Ser^8-Asp^9-Tyr^10-Aib^11-Ile^12-Aib^13-Leu^14-Asp^15-Lys^16-Gln^17-Ala^18-Gln^19-Ala^20-Glu^21-Phe^22-Val^23-Lys^24-Trp^25-Leu^26-Leu^27-Lys^28(AEEA-AEEA-γGlu-CO-(CH2)16-COOH)-Gly^29-Gly^30-Pro^31-Ser^32-Ser^33-Gly^34-Ala^35-Pro^36-Pro^37-Pro^38-Ser^39-Lys^40-NH2 | 0.16 | 1.09 | 72 h |
| H-Tyr^1-Aib^2-Glu^3-Gly^4-Thr^5-αMePhe^6-Thr^7-Ser^8-Asp^9-Tyr^10-Aib^11-Ile^12-Aib^13-Leu^14-Asp^15-Lys^16-Gln^17-Ala^18-Gln^19-Ala^20-Glu^21-Phe^22-Val^23-Lys^24-Trp^25-Leu^26-Leu^27-Lys^28(AEEA-AEEA-γGlu-CO-(CH2)20-COOH)-Gly^29-Gly^30-Pro^31-Ser^32-Ser^33-Gly^34-Ala^35-Pro^36-Pro^37-Pro^38-Ser^39 -Lys^40-NH2 | 0.04 | 0.56 | 72 h |
| H-Tyr^1-Aib^2-Glu^3-Gly^4-Thr^5-αMePhe^6-Thr^7-Ser^8-Asp^9-Tyr^10-Aib^11-Ile^12-Aib^13-Leu^14-Asp^15-Lys^16-Gln^17-Ala^18-Gln^19-Ala^20-Glu^21-Phe^22-Val^23-Lys^24-Trp^25-Leu^26-Leu^27-Lys^28(AEEA-AEEA-γGlu-γGlu-γGlu-CO-(CH2)16-COOH)-Gly^29-Gly^30-Pro^31-Ser^32-Ser^33-Gly^34-Ala^35-Pro^36-Pro^37-Pro^38-Ser^39-Lys^40-NH2 | 0.05 | 1.45 | 48 h |
| H-Tyr^1-Aib^2-Glu^3-Gly^4-Thr^5-αMePhe^6-Thr^7-Ser^8-Asp^9-Tyr^10-Aib^11-Ile^12-Aib^13-Leu^14-Asp^15-Lys^16-Gln^17-Ala^18-Gln^19-Ala^20-Glu^21-Phe^22-Val^23-Lys^24-Trp^25-Leu^26-Leu^27-Lys^28-Gly^29-Gly^30-Pro^31-Ser^32-Ser^33-Gly^34-Ala^35-Pro^36-Pro^37-Pro^38-Ser^39-Lys^40-NH2 | 8.82 | 19.52 | 32 h |
| Tirzepatide | 0.06 | 0.28 | 56 h and 48 h |
